Measurements: PubChem BioAssay AID651819 (National Center for Advancing Translational Sciences (NCATS), 2012)
Only a part is listed here, and it is no random draw. Activity calls are given as the source filed them. Rule as the data show it: active = activity change below about -30%; inactive = the rest.

These compounds were tested on cytosolic chaperonin (CCT/TRiC complex) (assay: High-Throughput Screening for Modulators of Cytosolic Chaperonin Activity). Conditions: purified chaperonin ATPase assay, HTRF ADP detection, 30 min; active compounds read low.
From the text: The eukaryotic chaperonin named TRiC (for TCP-1 ring complex), also called CCT (for chaperonin containing TCP1), is an essential and conserved chaperone required for the folding and activation of 10-15% of the proteins encoded by the human genome. […] Despite its central role in cellular folding, little is known about TRiC mechanism and mode of substrate binding. Currently, no specific TRiC inhibitors are available. Given the early promise of other chaperone-directed inhibitors as cancer therapeutics (e.g. HSP90 inhibitors), inhibitors of TRiC activity may also selectively target transformed cells and have potential use as therapeutics for cancer.
To this end, a miniaturized assay was developed to screen against the Molecular Libraries Small Molecule Repository (MLSMR).
NIH Chemical Genomics Center [NCGC]
NIH Molecular Libraries Probe Centers Network [MLPCN]
Assay Submitter (PI): Judith Frydman, Stanford University
1.5 uL/well TRiC enzyme suspended in buffer (30 mM TRIS pH7.4, 100 mM KCl, 5 mM MgCl2, 1 mM DTT) was added with BioRAPTR FRD dispenser at 40 nM or 20 nM (based on the enzymatic activity of used batches) final concentration to a white solid bottom medium binding 1536-well plate (Greiner Bio-One, Monroe, NC), and quickly spanned down. 23 nl/well of compound solutions in DMSO were added with a pintool transfer (Kalypsis, San Diego, CA) at a single 76 uM final concentration. Next, 1.5 µl/well ATP was dispensed with BioraptR at 10 uM final concentration after which the plates were incubated at 37 deg C for 30 min. HTRF(R) Transcreener(R) ADP (Cisbio US, Bedford, MA) detection reagents were prepared accordingly to the protocol and dispensed into the plate (1.5 uL/well each), incubated for 30 min at ambient temperature. Then, the plates were read using Envision reader with excitation at 330nm and emission at 615nm (Eu(3)-Cryptate donor signal) and 665nm (d2 acceptor signal). The ratio of […] was calculated for each well.
% is scaled to controls: 0 for no effect and ±100 for the full control effect.

Row | Structure (SMILES) | activity change
1 | c1nnnn1CCn1cnnn1 | inactive: -2.16%
2 | CC(C)C(=O)NC(Sc1ccccc1)C(Cl)(Cl)Cl (configuration not stated) | inactive: -0.594%
3 | O=P(Nc1nccs1)(c1ccccc1)c1ccccc1 | inactive: 0.815%
4 | O=P(Nc1nc2ccccc2s1)(c1ccccc1)c1ccccc1 | inactive: 0.449%
5 | C[C@H]1OP(=O)(Oc2ccccc2)[C@H](O)[C@H](O)[C@H]1N=[N+]=[N-] (some centres not stated) | inactive: -1.25%
6 | O=P(Nc1ccccn1)(c1ccc(Br)cc1)c1ccc(Br)cc1 | inactive: -0.944%
7 | CN(C)C1(CNC(=O)c2ccc(Cl)c(S(N)(=O)=O)c2)CCCCC1 | inactive: -2.16%
8 | COc1ccc(N)c([N+](=O)[O-])c1[N+](=O)[O-] | inactive: -0.316%
9 | Nc1ccc(CCCCOc2ccccc2)cc1 | inactive: -4.47%
10 | O=C(OC1CN2CCC1CC2)c1cccc(Cl)c1 (configuration not stated) | inactive: 2.03%
11 | C(Cc1nn[nH]n1)Cc1nn[nH]n1 | inactive: -2.18%
12 | Nc1ccc([As](=O)(O)c2ccc([N+](=O)[O-])cc2)cc1 | inactive: -1.73%
13 | O=[As](O)(c1ccccc1)c1ccc(O)cc1 | inactive: 0.303%
14 | O=[N+]([O-])c1ccc(O)c(/C=N/Nc2ccc([N+](=O)[O-])cc2[N+](=O)[O-])c1 | inactive: 0.185%
15 | O=[N+]([O-])c1ncn(CCn2cnc([N+](=O)[O-])n2)n1 | inactive: 0.666%
16 | CC(=O)NC(SC(=S)N(C)C)C(Cl)(Cl)Cl (configuration not stated) | inactive: 0.876%
17 | O=P1(N(CCCl)CCCl)OCCC2CCCCN21 (configuration not stated) | inactive: -1.43%
18 | c1ccc(-c2nn[nH]n2)c(-c2nn[nH]n2)c1 | inactive: -5.26%
19 | Cc1ccc(NP(=O)(Oc2cccc(C)c2)Oc2cccc(C)c2)nc1 | inactive: -4.49%
20 | CCNC(=S)/N=C(\N)N[N+](=O)[O-] | inactive: 0.976%
21 | O=C(NC1CCS(=O)(=O)C1)NP(=S)(Oc1ccccc1)Oc1ccccc1 (configuration not stated) | inactive: -1.9%
22 | CC(NC(=O)COC(=O)C(O)(c1ccccc1)c1ccccc1)c1ccccc1 (configuration not stated) | inactive: -2.93%
23 | Cc1ccccc1OP(=O)(Nc1ccccn1)Oc1ccccc1C | inactive: 1.12%
24 | O=c1c2cc([N+](=O)[O-])ccc2[nH]c2c([N+](=O)[O-])cc([N+](=O)[O-])cc12 | inactive: 0.0233%
25 | CN(C)C(=O)Oc1noc2ccccc12 | inactive: -0.268%
26 | O=C(OC1CN2CCC1CC2)c1ccccc1 (configuration not stated) | inactive: 1.95%
27 | CCC(=O)N1C2C3N(C(=O)CC)C1C1N(C(=O)CC)C(C(N1C(=O)CC)N3C(=O)CC)N2C(=O)CC | inactive: 0.833%
